Test results: US20030236202A1, “Natural products and derivatives thereof for protection against neurodegenerative diseases” (priority 2002, published 2003)

Assay: Absorption of hydroxytyrosol and derivatives: hydroxytyrosol in plasma after oral administration (GC-MS)
Conditions: mice, amounts equivalent to 10 mg hydroxytyrosol
Source text: Plasma from each blood sample was subsequently extracted with ethyl acetate, and subjected to analysis by gas chromatography in combination with mass spectrometry.

Row | Substance | hydroxytyrosol in plasma, 15 min. | Hydroxytyrosol in plasma, 60 min. [mg/L]
1 | 2-(3,4-Distearyloxyphenyl) ethyl stearate | not detected | 0.44
2 | 2-(3,4-Dihydroxyphenyl) ethyl acetate | 0.68 mg/L | 0.06
